These results are taken from publication doi:10.1101/2024.04.25.591105v1 (biorxiv, 2024).

Protein sequences, listed by entry. Tags and fused reporters are not part of them. Lines headed by an entry give the natural chain unless they say otherwise; changes in a name come on top.
UniProt P03372: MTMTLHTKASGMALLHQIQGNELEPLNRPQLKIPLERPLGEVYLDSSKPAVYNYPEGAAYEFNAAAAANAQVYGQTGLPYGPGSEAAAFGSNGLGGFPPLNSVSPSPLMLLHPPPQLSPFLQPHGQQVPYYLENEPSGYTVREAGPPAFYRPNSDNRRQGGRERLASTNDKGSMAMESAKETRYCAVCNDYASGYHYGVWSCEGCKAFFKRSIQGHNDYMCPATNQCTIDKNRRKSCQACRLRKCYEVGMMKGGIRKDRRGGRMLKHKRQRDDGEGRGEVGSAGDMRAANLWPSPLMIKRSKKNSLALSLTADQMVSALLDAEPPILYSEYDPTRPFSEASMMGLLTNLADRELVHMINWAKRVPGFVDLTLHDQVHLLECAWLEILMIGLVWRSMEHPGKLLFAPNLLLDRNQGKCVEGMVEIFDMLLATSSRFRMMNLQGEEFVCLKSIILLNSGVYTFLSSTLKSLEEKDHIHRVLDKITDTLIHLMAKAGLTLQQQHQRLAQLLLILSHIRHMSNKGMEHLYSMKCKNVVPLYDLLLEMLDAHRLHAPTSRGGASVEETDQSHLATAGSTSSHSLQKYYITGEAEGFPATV
UniProt P31947: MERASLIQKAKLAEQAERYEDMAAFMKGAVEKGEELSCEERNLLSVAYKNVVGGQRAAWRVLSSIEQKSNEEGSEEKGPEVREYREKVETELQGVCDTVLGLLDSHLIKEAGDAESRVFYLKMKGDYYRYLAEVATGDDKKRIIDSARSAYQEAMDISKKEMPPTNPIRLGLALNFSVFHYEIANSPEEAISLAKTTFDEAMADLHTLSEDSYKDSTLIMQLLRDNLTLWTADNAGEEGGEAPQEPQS

Molecules are shown by their SMILES. pEC50: −log10 of the molar value.

For this assay, the target named is ERα/14-3-3σ complex (14-3-3σ FL + FAM-labeled C-terminal phospho-ERα peptide) (Homo sapiens, UniProt P03372+P31947). The assay is described as follows: fluorescence anisotropy, compound titration. It is filed as binding. For orientation: Polarisation of emitted light reports the rotation of a fluorescent probe.

Turning to `C=CC(C)(C)OC[C@H]1O[C@H](O[C@@H]2C3=C([C@H](C)CNC(C)=O)C[C@H](O)[C@]3(C)/C=C3\[C@@H](COC)CC[C@H]3[C@@H](C)[C@H]2O)[C@H](O)[C@@H](O)[C@@H]1O` [FC-NAc], the negative logarithm of the EC50 (pEC50) (as a rule, the EC50 on a negative log10 scale, so that one unit is a factor of ten) was 7.82.
